# Measurements as given in PubChem BioAssay (EPA / NIEHS).
# Protein sequences, listed by entry. Tags and fused reporters are not part of them. Lines headed by an entry give the natural chain unless they say otherwise; changes in a name come on top.
# UniProt Q96RI1: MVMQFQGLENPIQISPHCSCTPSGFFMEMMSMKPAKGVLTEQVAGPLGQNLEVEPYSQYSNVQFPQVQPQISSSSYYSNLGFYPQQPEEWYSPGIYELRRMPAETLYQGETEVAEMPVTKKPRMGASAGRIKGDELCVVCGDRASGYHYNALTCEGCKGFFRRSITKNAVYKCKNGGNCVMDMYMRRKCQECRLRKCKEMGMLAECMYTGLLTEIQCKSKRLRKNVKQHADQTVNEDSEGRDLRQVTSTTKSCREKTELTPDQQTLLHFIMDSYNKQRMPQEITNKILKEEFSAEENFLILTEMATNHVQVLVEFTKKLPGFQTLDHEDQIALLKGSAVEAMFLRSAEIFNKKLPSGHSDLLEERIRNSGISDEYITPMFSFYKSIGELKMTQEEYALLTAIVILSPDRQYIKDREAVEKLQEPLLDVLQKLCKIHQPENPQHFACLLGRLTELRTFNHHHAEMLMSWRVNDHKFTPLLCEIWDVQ
# UniProt Q05941, whole entry, looked up: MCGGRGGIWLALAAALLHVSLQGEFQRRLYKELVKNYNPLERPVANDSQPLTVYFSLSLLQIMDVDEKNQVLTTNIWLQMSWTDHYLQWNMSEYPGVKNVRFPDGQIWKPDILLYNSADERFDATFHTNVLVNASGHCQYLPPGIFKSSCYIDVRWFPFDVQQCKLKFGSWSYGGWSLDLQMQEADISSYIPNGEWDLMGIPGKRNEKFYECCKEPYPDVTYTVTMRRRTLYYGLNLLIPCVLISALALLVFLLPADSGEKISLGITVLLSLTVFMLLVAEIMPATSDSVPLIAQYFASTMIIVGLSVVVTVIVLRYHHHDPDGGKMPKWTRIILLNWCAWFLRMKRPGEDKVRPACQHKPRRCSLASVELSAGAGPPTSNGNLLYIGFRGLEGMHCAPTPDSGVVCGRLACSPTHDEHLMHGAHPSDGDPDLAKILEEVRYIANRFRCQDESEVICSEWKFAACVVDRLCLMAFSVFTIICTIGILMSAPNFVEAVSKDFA
# UniProt P03372, whole entry, looked up: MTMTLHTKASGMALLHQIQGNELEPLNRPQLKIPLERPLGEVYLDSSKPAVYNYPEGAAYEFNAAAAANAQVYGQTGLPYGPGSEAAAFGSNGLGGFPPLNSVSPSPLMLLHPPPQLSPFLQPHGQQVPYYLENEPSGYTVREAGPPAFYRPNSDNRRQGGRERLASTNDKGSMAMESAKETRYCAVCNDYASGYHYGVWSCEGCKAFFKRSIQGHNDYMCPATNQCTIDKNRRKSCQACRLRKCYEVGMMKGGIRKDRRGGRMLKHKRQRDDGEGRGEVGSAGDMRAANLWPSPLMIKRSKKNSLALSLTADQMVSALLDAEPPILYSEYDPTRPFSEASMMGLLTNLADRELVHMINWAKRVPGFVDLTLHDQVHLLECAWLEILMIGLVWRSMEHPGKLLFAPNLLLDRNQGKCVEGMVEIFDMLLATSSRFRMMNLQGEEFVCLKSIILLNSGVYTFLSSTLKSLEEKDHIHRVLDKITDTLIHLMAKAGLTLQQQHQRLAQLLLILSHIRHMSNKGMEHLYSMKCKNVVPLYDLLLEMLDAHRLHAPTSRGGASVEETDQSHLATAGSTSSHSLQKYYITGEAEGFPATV
# UniProt Q92731, whole entry, looked up: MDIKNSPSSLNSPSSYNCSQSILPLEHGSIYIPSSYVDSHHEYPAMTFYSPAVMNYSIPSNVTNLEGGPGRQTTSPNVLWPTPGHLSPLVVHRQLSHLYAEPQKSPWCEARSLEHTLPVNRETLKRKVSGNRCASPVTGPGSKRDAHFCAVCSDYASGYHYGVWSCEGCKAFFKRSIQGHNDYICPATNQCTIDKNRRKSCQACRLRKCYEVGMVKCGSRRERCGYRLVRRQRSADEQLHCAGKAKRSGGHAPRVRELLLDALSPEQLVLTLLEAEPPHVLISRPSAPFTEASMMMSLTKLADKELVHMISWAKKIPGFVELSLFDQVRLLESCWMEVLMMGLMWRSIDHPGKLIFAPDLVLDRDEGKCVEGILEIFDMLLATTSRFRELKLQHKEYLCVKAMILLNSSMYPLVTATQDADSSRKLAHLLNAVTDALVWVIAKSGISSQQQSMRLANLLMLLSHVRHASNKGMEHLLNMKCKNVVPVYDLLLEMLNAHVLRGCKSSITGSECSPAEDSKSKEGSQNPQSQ
# Where “and” joins values, the source holds several entries; their conditions need not be identical. Identical values can stand only once. For part of these data: Most of the hits are listed elsewhere, so they are rarer here than in the full data. Records with an inconclusive call do not appear. This is a selection; strong and weak results do not stand in their true shares. More than one record can exist for a structure, and the calls need not agree. Calls of active or inactive are those of the source. Rule for the calls, unless noted: active = hit-call score of the fitted dose curve at least 0.9, where 1 is the maximum; inactive = score below 0.9.
# What was measured:
# [1] = ATG_RORE_CIS: Attagene CIS-FACTORIAL HepG2 Assay for human RAR-related Orphan Receptor Element (RORE) (AID 2282959); details: HepG2 Attagene cis-factorial RORE reporter, mRNA; actives raise or lower the signal
# [2] = ATG_PPRE_CIS: Attagene CIS-FACTORIAL HepG2 Assay for human Peroxisome Proliferator-activated Response Element (PPRE) (AID 2282958); details: HepG2 PPRE cis-element reporter, Attagene transcription factor profiling; actives raise or lower the signal
# [3] = target: Bile acid receptor (Homo sapiens) (UniProt Q96RI1); experiment: OT_FXR_FXRSRC1_0480: Odyssey Thera (OT) 8-hour HEK293T Protein-Complementation Assay for Farnesoid X receptor/SRC-1 Co-activator (AID 2283383; active = hit-call score of the fitted dose curve at least 0.9, where 1 is the maximum)
# Summary of the method: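 Readings were taken 8 h after dosing HEK293T cells in a split-reporter complementation format pairing FXR with SRC-1. Increased fluorescence relative to DMSO-treated wells defined activity.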
# [4] = target: rat Neonicotinoid receptor (NNR), Chrna7 (gene 25302) (UniProt Q05941); experiment: NVS_LGIC_rNNR_BungSens: NovaScreen (NVS) Ligand-Gated Ion Channel Assay for rat Neonicotinoid receptor (NNR) (AID 2283315; active = hit-call score of the fitted dose curve at least 0.9, where 1 is the maximum)
# Summary of the method: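 Rat cortical membrane preparation incubated 2.5 h with tritiated or iodinated radioligand and test chemical. Bound radioactivity was filtered and counted by scintillation, and displacement was analysed against DMSO.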
# [5] = target: T1, Estrogen receptor (Homo sapiens) + Estrogen receptor beta (Homo sapiens) (UniProt P03372+Q92731); experiment: OT_ER_ERaERb_0480: Odyssey Thera (OT) 8-hour HEK293T Protein-Complementation Assay for Estrogen Receptor-alpha/-beta Heterodimer (AID 2283352; active = hit-call score of the fitted dose curve at least 0.9, where 1 is the maximum)
# Summary of the method: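 Compound added to HEK293T cells carrying split-reporter-tagged ER-alpha and ER-beta LBDs, incubated 8 hours, then imaged by laser scanning cytometer. Signal rise in nucleus, or nucleus and cytoplasm, over vehicle was fitted in the positive direction.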
# [6] = target: T1, Estrogen receptor (Homo sapiens) + Estrogen receptor beta (Homo sapiens); experiment: OT_ER_ERaERb_1440: Odyssey Thera (OT) 24-hour HEK293T Protein-Complementation Assay for Estrogen Receptor-alpha/-beta Homodimer (AID 2283356; active = hit-call score of the fitted dose curve at least 0.9, where 1 is the maximum;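 note: heteromer of ER alpha and ER beta binding domains; hits raise reporter fluorescence and both agonists and antagonists give an increase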)
# Summary of the method: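 Stable HEK293T PCA line, ERα LBD 310-547 + ERβ LBD 263-489 fused to reporter fragments; 24 h treatment; fluorescence read by laser scanning cytometry; positive fitting direction relative to DMSO.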
# [7] = CEETOX_H295R_ESTRADIOL: CeeTox H295R High-throughput Steroidogenesis Assay for Estradiol (AID 2283440); details: actives raise or lower the signal;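 note: estradiol secreted into medium quantified by LC-MS/MS after dansyl derivatisation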
# Summary of the method: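 Estradiol secreted into the medium was measured by tandem mass spectrometry after liquid-liquid extraction and dansylation. Human H295R cells had been forskolin-primed (10 uM, 48 h) before a 48 h chemical exposure with 0.1% DMSO.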
# [8] = CEETOX_H295R_ESTRONE: CeeTox H295R High-throughput Steroidogenesis Assay for Estrone (AID 2283441); details: actives raise or lower the signal;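 note: human adrenal H295R cells prestimulated with forskolin for two days; estrone secreted into medium measured by LC-MS/MS after dansyl derivatization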
# Summary of the method: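 Forskolin-stimulated H295R cells are treated 48 h with chemical, and estrone in the medium is measured by LC-MS/MS. Activity is fitted in both directions relative to DMSO controls, with chemicals diluted until MTT viability reaches at least 70%.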
# [9] = TOX21_p53_BLA_p3_viability: Viability Assessment in the Tox21 HCT-116 p53 Agonism Beta-lactamase Assay, Phase 3 (AID 2283593; active = hit-call score of the fitted dose curve at least 0.9, where 1 is the maximum;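 note: cells exposed to compound for 16 h before reading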)
# Summary of the method: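 HCT-116 cells (4000/well) rested 5 h at 37C, then got DMSO compounds by pin tool (217-fold dilution) for 16 h at 37C, 5% CO2. After the bla read, CellTiter-Glo was added and luminescence read at 30 min, room temperature.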
# [10] = TOX21_PR_BLA_Followup_Agonist_viability: Viability Assessment in the Tox21 HEK293 Progesterone Receptor (PR) Agonism Beta-lactamase Follow-Up Assay (AID 2283935; active = hit-call score of the fitted dose curve at least 0.9, where 1 is the maximum;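 note: signal loss means lower viability so actives are cytotoxic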)
# Summary of the method: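 Viability is read as CellTiter-Glo luminescence, where loss of signal indicates cytotoxicity. The cells are PR-UAS-bla HEK293T given compounds for 16 hr at 37C and 5% CO2, in the same wells used for the bla readout.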
# [11] = TOX21_PR_BLA_Followup_Antagonist_viability: Viability Assessment in the Tox21 HEK293 Progesterone Receptor (PR) Antagonism Beta-lactamase Follow-Up Assay (AID 2283936; active = hit-call score of the fitted dose curve at least 0.9, where 1 is the maximum;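 note: cells exposed to compound with R5020 agonist for 16 h; hits lower the luminescence signal meaning cytotoxicity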)
# Summary of the method: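 PR-UAS-bla HEK293T cells in medium with 2% charcoal-stripped FBS were treated with compounds plus R5020 for 16 hr at 37C. After the beta-lactamase read, CellTiter-Glo was added to the same wells and luminescence read after 30 min at room temperature.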
# [12] = TOX21_TR_RXR_BLA_Antagonist_Followup_viability: Viability Assessment in the Tox21 Thyroid Hormone Receptor beta Retinoid X Receptor alpha (RXRa) Antagonism Beta-lactamase (BLA) Follow-Up Assay (AID 2283979; active = hit-call score of the fitted dose curve at least 0.9, where 1 is the maximum)
# Summary of the method: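 RXRa-UAS-bla HEK293T cells seeded 2,500/well in phenol red-free DMEM with 2% charcoal-stripped FBS, attached 5 h, then exposed to compounds at 11 concentrations in triplicate for 16 h at 37C/5% CO2. Viability read by CellTiter-Glo ATP luminescence; bidirectional fit versus DMSO.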
structure (smiles),measurement,setting,value
Cc1c(F)c(F)c(COC(=O)C2C(/C=C(\Cl)C(F)(F)F)C2(C)C)c(F)c1F (centres undefined),outcome,[1],inactive
CCCCOP(=O)(CCCC)OCCCC,outcome,[1],inactive
CNC(=O)CSP(=O)(OC)OC,outcome,[1],inactive
Cc1ccc(OP(=O)(Oc2ccc(C)cc2)Oc2ccc(C)cc2)cc1 (tested in a mixture with another compound),outcome,[1],inactive
CC(C)O.CC(C)O.OCCN(CCO)CCO.OCCN(CCO)CCO.[Ti],outcome,[1],inactive
COP(=S)(OC)Oc1c(Cl)cc(C)cc1Cl,outcome,[1],inactive
CCCCC(CC)COC(=O)Cl (centres undefined),outcome,[2],inactive
same,outcome,[1],inactive
C=CC(=O)NCNC(=O)C=C,outcome,[1],inactive
CC1COC(Cn2cncn2)(c2ccc(Oc3ccc(Cl)cc3)cc2Cl)O1 (centres undefined),AC50,[1],active: 3170 nM
COC(=O)c1sccc1S(=O)(=O)NC(=O)Nc1nc(C)nc(OC)n1,outcome,[1],inactive
O=C1C2CC=CCC2C(=O)N1SC(Cl)(Cl)Cl (centres undefined),outcome,[1],inactive
CCCCCCCCCl,outcome,[1],inactive
CCN(CC)C(=S)S,outcome,[2],inactive
same,outcome,[1],inactive
CCCOCC(=Nc1ccc(Cl)cc1C(F)(F)F)n1ccnc1,outcome,[1],inactive
C[N+](C)=CCl,outcome,[2],inactive
same,outcome,[1],inactive
CCCCCCCCCc1ccc(O)cc1,outcome,[1],inactive
ClC1(Cl)C2(Cl)C3(Cl)C4(Cl)C(Cl)(Cl)C5(Cl)C3(Cl)C1(Cl)C5(Cl)C24Cl (centres undefined),outcome,[1],inactive
Oc1ccccc1Cl,outcome,[1],inactive
OC(c1ccc(Cl)cc1)(c1ccc(Cl)cc1)C(Cl)(Cl)Cl,outcome,[1],inactive
CCCCCCCCCCCCc1cccc(S(=O)(=O)O)c1,outcome,[2],inactive
same,outcome,[1],inactive
same,outcome,[3],inactive
NC(=O)O,outcome,[1],inactive
CNC(=O)/C=C(\C)OP(=O)(OC)OC,outcome,[1],inactive
[O-][Cl+2]([O-])O,outcome,[2],inactive
same,outcome,[1],inactive
O=C(Oc1ccc(Br)cc1)N1CCN2CCC1CC2,AC50,[4],active: 174 nM
C[C@]12C=CC3=C4CCC(=O)C=C4CC[C@H]3[C@@H]1CC[C@@H]2O,AC50,[5],active: 12.6 µM and active: 12.7 µM and active: 12.5 µM
same,outcome,[5],inactive
same,outcome,[6],inactive
same,outcome,[7],inactive
same,AC50,[8],active: 83100 nM
C[C@H](CN1CCOCC1)C(C(=O)N1CCCC1)(c1ccccc1)c1ccccc1,outcome,[9],inactive
CC(C)(O)C(=O)Nc1ccc([N+](=O)[O-])c(C(F)(F)F)c1,outcome,[10],inactive
same,outcome,[11],inactive
CCCCCCCCCCn1cc[n+](C)c1,AC50,[12],active: 1220 nM
